# scFv variants of Ab-14 (light chain) against a SARS-CoV-2 spike peptide

Target: peptide PDVDLGDISGINAS, taken from heptad repeat 2 (HR2) of SARS-CoV-2 spike.

The variants keep the heavy chain, the linker and the frameworks of Ab-14 (scFv order VH, a 15-residue (Gly4Ser)3 linker, VL).
VH: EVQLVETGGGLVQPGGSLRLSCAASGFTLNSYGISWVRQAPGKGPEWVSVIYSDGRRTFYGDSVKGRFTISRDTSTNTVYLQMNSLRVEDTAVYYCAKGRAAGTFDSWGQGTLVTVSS
VL: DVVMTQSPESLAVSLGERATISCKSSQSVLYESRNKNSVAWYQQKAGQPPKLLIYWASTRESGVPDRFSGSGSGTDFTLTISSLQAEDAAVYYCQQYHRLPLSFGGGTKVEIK

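The library (AAYL50) carries one to three amino acid substitutions per variant, with no insertions or deletions. The scFvs were displayed on barcoded MATa yeast, the peptide on MATalpha yeast. Binding brings cells together so that they mate, and sequencing counts the barcode pairs among the diploids. The ratio of observed to expected reads was calibrated, replicate by replicate, on BCL2-family standards whose Kd was known from biolayer interferometry. Mating was done three times.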

Each variant is given by its three light chain CDRs, as the data file delimits them; those of the parent are KSSQSVLYESRNKNSVA, WASTRES, QQYHRLPLS. Each Kd is an estimate from the mating assay, the geometric mean of the replicates in which the pair was seen; lower is stronger. "nd" means that the variant was in the library but no mating with the target was seen in any replicate; the authors take this as a sign of poor binding, and no number exists. Empty control strains, which show no peptide, gave a signal in 18% of pairings with library AAYL50; the median was 15 µM and 95% of these signals were weaker than 970 nM. No background was subtracted.

{"CDR-L1": "KSSQSVLYESRNKNSVA", "CDR-L2": "WASTREG", "CDR-L3": "QGYHSLPLS", "apparent Kd": "98 nM", "seen in": "3 of 3"}
{"CDR-L1": "KSSQSVLYERRNKNSVA", "CDR-L2": "KASTRPS", "CDR-L3": "QQYHRLPLS", "apparent Kd": "580 nM", "seen in": "1 of 3"}
{"CDR-L1": "KSSQSVMYESRNKNSVA", "CDR-L2": "WAHTRES", "CDR-L3": "QQYHALPLS", "apparent Kd": "30 nM", "seen in": "3 of 3"}
{"CDR-L1": "KSSQNVLYESRNKNSVA", "CDR-L2": "WASTRES", "CDR-L3": "NQYHRRPLS", "apparent Kd": "180 µM", "seen in": "3 of 3"}
{"CDR-L1": "KSSQSVLYESRNKNSVA", "CDR-L2": "WASVSES", "CDR-L3": "QQYHRLVLS", "apparent Kd": "39 µM", "seen in": "1 of 3"}
{"CDR-L1": "HSVQSVLYESRNKNGVA", "CDR-L2": "WASTRES", "CDR-L3": "QQYHRLPLS", "apparent Kd": "3.9 µM", "seen in": "3 of 3"}
{"CDR-L1": "KSSESVLYETRNKNSVA", "CDR-L2": "NASTRES", "CDR-L3": "QQYHRLPLS", "apparent Kd": "1.6 nM", "seen in": "3 of 3"}
{"CDR-L1": "KCSQSVLYHSRRKNSVA", "CDR-L2": "WASTRES", "CDR-L3": "QQYHRLPLS", "apparent Kd": "130 nM", "seen in": "3 of 3"}
{"CDR-L1": "KSSSSVLYESRNKNSVA", "CDR-L2": "WAKTRES", "CDR-L3": "QQYHRLPLM", "apparent Kd": "480 nM", "seen in": "3 of 3"}
{"CDR-L1": "KSSQSVLYWSRNKNSVA", "CDR-L2": "WASTRES", "CDR-L3": "IQYPRLPLS", "apparent Kd": "26 µM", "seen in": "2 of 3"}
{"CDR-L1": "KSSQSVLYESRNINSVA", "CDR-L2": "WASTRES", "CDR-L3": "QQYHVLPLG", "apparent Kd": "50 nM", "seen in": "3 of 3"}
{"CDR-L1": "KSSQSVLYTSRNKNSAR", "CDR-L2": "WASTRES", "CDR-L3": "QQYHRLPLS", "apparent Kd": "nd", "seen in": "0 of 3"}
{"CDR-L1": "ISSQWQLYESRNKNSVA", "CDR-L2": "WASTRES", "CDR-L3": "QQYHRLPLS", "apparent Kd": "200 nM", "seen in": "3 of 3"}
{"CDR-L1": "KPSQSVLYESRNKNSVA", "CDR-L2": "WRSTRES", "CDR-L3": "QWYHRLPLS", "apparent Kd": "290 µM", "seen in": "1 of 3"}
{"CDR-L1": "KSSQSVVYESRVKNSVA", "CDR-L2": "WASTRFS", "CDR-L3": "QQYHRLPLS", "apparent Kd": "130 nM", "seen in": "3 of 3"}
{"CDR-L1": "KSSQSGLYESINKNSVA", "CDR-L2": "WASYRES", "CDR-L3": "QQYHRLPLS", "apparent Kd": "170 nM", "seen in": "3 of 3"}
{"CDR-L1": "KDSQQVLYESRNKNSVA", "CDR-L2": "WASTRES", "CDR-L3": "QQFHRLPLS", "apparent Kd": "4.9 µM", "seen in": "3 of 3"}
{"CDR-L1": "KSSQSVLYESRNKNSMA", "CDR-L2": "IASTRES", "CDR-L3": "QQAHRLPLS", "apparent Kd": "7.8 µM", "seen in": "3 of 3"}
{"CDR-L1": "KSSQSVLYESRPKNSVA", "CDR-L2": "WASTRES", "CDR-L3": "QYYVRLPLS", "apparent Kd": "1.4 µM", "seen in": "3 of 3"}
{"CDR-L1": "KSSQSVLYEHRNKNSVA", "CDR-L2": "WARTRES", "CDR-L3": "PQYHRLPLS", "apparent Kd": "140 µM", "seen in": "3 of 3"}
{"CDR-L1": "KSSQSVLTEDRNKNSVA", "CDR-L2": "WASTRES", "CDR-L3": "SQYHRLPLS", "apparent Kd": "9.4 nM", "seen in": "3 of 3"}
{"CDR-L1": "KESQSKLYESRNKNSVA", "CDR-L2": "WASTMES", "CDR-L3": "QQYHRLPLS", "apparent Kd": "nd", "seen in": "0 of 3"}
{"CDR-L1": "KSSQSAYYESRNKNSNA", "CDR-L2": "WASTRES", "CDR-L3": "QQYHRLPLS", "apparent Kd": "630 µM", "seen in": "3 of 3"}
{"CDR-L1": "KSSQSVLVESRNKNSVA", "CDR-L2": "MASTRES", "CDR-L3": "QQYHRLPLS", "apparent Kd": "2.9 nM", "seen in": "3 of 3"}
{"CDR-L1": "ESSQSVLYESRNSNSGA", "CDR-L2": "WASTRES", "CDR-L3": "QQYHRLPLS", "apparent Kd": "28 µM", "seen in": "1 of 3"}
{"CDR-L1": "KSSQSVLYELRNKNSVA", "CDR-L2": "WTSTRES", "CDR-L3": "QQYHRFPLS", "apparent Kd": "2.6 µM", "seen in": "3 of 3"}
{"CDR-L1": "KSSQSVHYESRWKNSVA", "CDR-L2": "WASTRES", "CDR-L3": "QQYHRLPPS", "apparent Kd": "nd", "seen in": "0 of 3"}
{"CDR-L1": "KSSQSVLYESRNKNSWA", "CDR-L2": "WASEREA", "CDR-L3": "QQYHRLPLS", "apparent Kd": "nd", "seen in": "0 of 3"}

The last 2 entries again:

CDR-L1	CDR-L2	CDR-L3	apparent Kd	seen in
KSSQSVHYESRWKNSVA	WASTRES	QQYHRLPPS	nd	0 of 3
KSSQSVLYESRNKNSWA	WASEREA	QQYHRLPLS	nd	0 of 3

In this assay the parent's reference entry averaged 4.4 nM; its copy inside this library read 48 nM.

Reference: Engelhart et al. 2022, doi:10.1038/s41597-022-01779-4. File: FLAb, binding data.